Counter-ions that a name gives are not always drawn.
Target: δ-opioid receptor (Rattus norvegicus, UniProt P33533)
Assay: biochemical
Details: δ Ki (nM), rat forebrain membrane preparation, [3H]DPDPE, 25° C.

Chains of the proteins cited; added tags and fusions are not shown. Lines headed by an entry give the natural chain unless they say otherwise; changes in a name come on top.
UniProt P33533, whole entry: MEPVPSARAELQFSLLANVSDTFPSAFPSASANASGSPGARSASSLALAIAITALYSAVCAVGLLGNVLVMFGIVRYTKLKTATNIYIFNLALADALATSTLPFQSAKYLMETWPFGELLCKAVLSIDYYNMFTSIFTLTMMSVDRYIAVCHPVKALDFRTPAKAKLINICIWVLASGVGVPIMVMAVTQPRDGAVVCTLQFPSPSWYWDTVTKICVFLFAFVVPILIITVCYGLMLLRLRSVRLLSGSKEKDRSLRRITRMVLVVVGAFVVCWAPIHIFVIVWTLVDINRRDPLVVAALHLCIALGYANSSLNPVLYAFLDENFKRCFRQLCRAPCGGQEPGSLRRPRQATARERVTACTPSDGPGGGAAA

| SMILES | Ki [nM] |
| --- | --- |
| CCN(CC)C(=O)c1ccc(C(=C2CC3CCC(C2)N3CCc2ccccc2)c2ccccc2)cc1 (single isomer, unassigned; (-)) [Example 23] | 0.23 |
| CCN(CC)C(=S)c1ccc(C(=C2CC3CCC(C2)N3CCc2ccccc2)c2ccccc2)cc1 (single isomer, unassigned; (-)) [Example 25] | 9.9 |
| CCN(CC)C(=O)c1ccc(C(=C2CC3CCC(C2)N3C)c2ccccc2)cc1.Cl [Example 1, N,N-Diethyl-4-[(8-methyl-8-azabicyclo[3.2.1]oct-3-ylidene)phenylmethyl]benzamide Hydrochloride [1:1]] | 1.2 |
| CCN(CC)C(=O)c1ccc(C(=C2CC3CCC(C2)N3)c2ccccc2)cc1.Cl [Example 2, N,N-Diethyl-4-[(8-azabicyclo[3.2.1]oct-3-ylidene)phenylmethyl]benzamide Hydrochloride [1:1]] | 0.1 |
| C=CCN1C2CCC1CC(=C(c1ccccc1)c1ccc(C(=O)N(CC)CC)cc1)C2 [Example 5, N,N-Diethyl-4-[(8-allyl-8-azabicyclo[3.2.1]oct-3-ylidene)phenylmethyl]benzamide Hydrochloride [1:1]] | 0.06 |
| CCN(CC)C(=O)c1ccc(C(=C2CC3CCC(C2)N3CCc2ccc(F)cc2)c2ccccc2)cc1 [Example 7] | 2.6 |
| CCN(CC)C(=O)c1ccc(C(=C2CC3CCC(C2)N3CCc2cccs2)c2ccccc2)cc1 [Example 8] | 13 |
| CCN(CC)C(=O)c1ccc(C(=C2CC3CCC(C2)N3CCc2c[nH]c3ccccc23)c2ccccc2)cc1 [Example 9] | 3.5 |
| CCN(CC)C(=O)c1ccc(C(=C2CC3CCC(C2)N3CCC2CCCCC2)c2ccccc2)cc1 [Example 10] | 1.4 |
| CCN(CC)C(=O)c1ccc(C(=C2CC3CCC(C2)N3CCn2nnn(CC)c2=O)c2ccccc2)cc1 [Example 12] | 18.5 |
| CCN(CC)C(=O)c1ccc(C(=C2CC3CCC(C2)N3CC(=O)c2ccccc2)c2ccccc2)cc1 [Example 13] | 6.3 |
| CCN(CC)C(=O)c1ccc(C(=C2CC3CCC(C2)N3CC(=O)c2ccc(OC)cc2)c2ccccc2)cc1 [Example 14] | 1.1 |
| CCN(CC)C(=O)c1ccc(C(=C2CC3CCC(C2)N3CC(=O)c2cccc(C#N)c2)c2ccccc2)cc1 [Example 15] | 6.8 |
| CCN(CC)C(=O)c1ccc(C(=C2CC3CCC(C2)N3CC(=O)c2ccc3c(c2)OCCCO3)c2ccccc2)cc1 [Example 17] | 0.23 |
| CCN(CC)C(=O)c1ccc(C(=C2CC3CCC(C2)N3CCc2ccccc2)c2ccccc2)cc1 [Example 19] | 0.7 |
| CCN(CC)C(=O)c1ccc(C(=C2CC3CCC(C2)N3Cc2ccc3c(c2)OCO3)c2ccccc2)cc1 [Example 20] | 0.01 |
| CN(C(=O)c1cccc(C(=C2CC3CCC(C2)N3C)c2ccccc2)c1)c1cccc(F)c1.O=C(O)/C=C/C(=O)O [Example 22, N-(3-Fluorophenyl)-N-methyl-3-[(8-methyl-8-azabicyclo[3.2.1]oct-3-ylidene)phenylmethyl]benzamide Fumarate [1:1]] | 92 |
| CCNC(=O)c1ccc(C(=C2CC3CCC(C2)N3CCc2ccccc2)c2ccccc2)cc1 [Example 26, N-Ethyl-4-[(8-phenethyl-8-azabicyclo[3.2.1]oct-3-ylidene)phenylmethyl]benzamide] | 7.5 |
| O=C(c1ccc(C(=C2CC3CCC(C2)N3CCc2ccccc2)c2ccccc2)cc1)N1CCCC1 [Example 33] | 24 |
| CC1CCCC(C)N1C(=O)c1ccc(C(=C2CC3CCC(C2)N3CCc2ccccc2)c2ccccc2)cc1 (stereo not shown) [Example 34] | 11 |
| CCCN(CCC)C(=O)c1ccc(C(=C2CC3CCC(C2)N3CCc2ccccc2)c2ccccc2)cc1 [Example 36] | 7.4 |
| O=C(Nc1nccs1)c1ccc(C(=C2CC3CCC(C2)N3CCc2ccccc2)c2ccccc2)cc1 [Example 39] | 49 |

| SMILES | Ki [nM] |
| --- | --- |
| O=C(NCc1nc2ccccc2[nH]1)c1ccc(C(=C2CC3CCC(C2)N3CCc2ccccc2)c2ccccc2)cc1 [Example 41] | 331 |
| O=C(NC1CC1)c1ccc(C(=C2CC3CCC(C2)N3CCc2ccccc2)c2ccccc2)cc1 [Example 45] | 19.8 |
| CCNC(=O)c1ccc(C(=C2CC3CCC(C2)N3CCc2ccc3c(c2)OCO3)c2ccccc2)cc1 [Example 48, N-Ethyl-[[8-(2-Benzo[1,3]dioxol-5-ylethyl)-8-azabicyclo[3:2:1]oct-3-ylidene]phenylmethyl]benzamide] | 48.2 |
| CCN(CC)C(=O)c1ccc(C(=C2CC3CCC(C2)N3CCc2ccc3c(c2)OCO3)c2ccccc2)cc1 [Example 49, N,N-Diethyl-[[8-(2-Benzo[1,3]dioxol-5-ylethyl)-8-azabicyclo[3:2:1]oct-3-ylidene]phenylmethyl]benzamide] | 4.96 |
| CCNC(=O)c1ccc(C(=C2CC3CCC(C2)N3C)c2ccccc2)cc1 [Example 50, N-Ethyl-4-[(8-Methyl-8-azabicyclo[3.2.1]oct-3-ylidene)phenylmethyl]benzamide] | 8.5 |
| CCNC(=O)c1ccc(C(=C2CC3CCC(C2)N3)c2ccccc2)cc1 [Example 51, N-Ethyl-4-[(8-azabicyclo[3.2.1]oct-3-ylidene)phenylmethyl]benzamide] | 5.7 |
| C=CCN1C2CCC1CC(=C(c1ccccc1)c1ccc(C(=O)NCC)cc1)C2 [Example 52, N-Ethyl-4-[(8-allyl-8-azabicyclo[3.2.1]oct-3-ylidene)phenylmethyl]benzamide] | 0.75 |
| CCN(CC)C(=O)c1ccc(C(=C2CC3CCC(C2)N3CCc2ccc(OC)cc2)c2ccccc2)cc1 [Example 53, N,N-Diethyl-4-[[8-[2-(4-methoxyphenyl)ethyl]-8-azabicyclo[3:2:1]oct-3-ylidene]phenylmethyl]benzamide] | 2.9 |
| COc1ccc(CCN2C3CCC2CC(=C(c2ccccc2)c2ccc(C(=O)N4CCOCC4)cc2)C3)cc1 [Example 54] | 57 |
| CCNC(=O)c1ccc(C(=C2CC3CCC(C2)N3CCc2ccc(OC)cc2)c2ccccc2)cc1 [Example 55] | 225 |
| COCCN(CCOC)C(=O)c1ccc(C(=C2CC3CCC(C2)N3CCc2ccc(OC)cc2)c2ccccc2)cc1 [Example 56] | 24 |
| COc1ccc(CCN2C3CCC2CC(=C(c2ccccc2)c2ccc(C(=O)N4CCCC4)cc2)C3)cc1 [Example 57] | 15 |
| COc1ccc(CCN2C3CCC2CC(=C(c2ccccc2)c2ccc(C(=O)N4C(C)CCCC4C)cc2)C3)cc1 (stereo not shown) [Example 58] | 18 |
| C=C(C)CN(CC)C(=O)c1ccc(C(=C2CC3CCC(C2)N3CCc2ccc(OC)cc2)c2ccccc2)cc1 [Example 59] | 3.9 |
| CCCN(CCC)C(=O)c1ccc(C(=C2CC3CCC(C2)N3CCc2ccc(OC)cc2)c2ccccc2)cc1 [Example 60] | 12 |
| COc1ccc(CCN2C3CCC2CC(=C(c2ccccc2)c2ccc(C(=O)N4C(C)(C)CCCC4(C)C)cc2)C3)cc1 [Example 61] | 15.5 |
| COc1ccc(CCN2C3CCC2CC(=C(c2ccccc2)c2ccc(C(=O)N(C(C)C)C(C)C)cc2)C3)cc1 [Example 62] | 30.7 |
| CCN(CC)C(=O)c1ccc(C(=C2CC3CCC(C2)N3CCc2ccc(OC)cc2)c2ccc(OC)cc2)cc1 [Example 67, N,N-Diethyl-4-[(4-methoxyphenyl)-[8-[2-(4-methoxyphenyl)ethyl]-8-azabicyclo[3:2:1]oct-3-ylidene]methyl]benzamide] | 24.7 |
| CCN(CC)C(=O)c1ccc(C(=C2CC3CCC(C2)N3CCc2ccc(O)cc2)c2ccc(O)cc2)cc1 [Example 68, N,N-Diethyl-4-[(4-hydroxyphenyl)-[8-[2-(4-hydroxyphenyl)ethyl]-8-azabicyclo[3:2:1]oct-3-ylidene]methyl]benzamide] | 0.41 |
| CCNC(=O)c1ccc(C(=C2CC3CCC(C2)N3CCc2ccc(O)cc2)c2ccccc2)cc1 [Example 69, N-Ethyl-4-[[8-[2-(4-hydroxyphenyl)ethyl]-8-azabicyclo[3:2:1]oct-3-ylidene]phenylmethyl]benzamide] | 1.08 |
| CCN(CC)C(=O)c1ccc(C(=C2CC3CCC(C2)N3CCc2ccc(O)cc2)c2ccccc2)cc1 [Example 70, N,N-Diethyl-4-[[8-[2-(4-hydroxyphenyl)ethyl]-8-azabicyclo[3:2:1]oct-3-ylidene]phenylmethyl]benzamide] | 0.7 |

From patent publication US20030181447A1, “3-(Diarylmethylene)-8-azabicyclo[3.2.1]octane derivatives” (priority 2001, published 2003)
